The entries are a selection whose mix differs from that of the whole data set. Active and inactive are the calls of the source. Calls come from the whole dose curve; as a rule, active = well fitted activation curve with a large enough effect; inconclusive = small, poorly fitted or top-dose-only effect; inactive = no such curve, though single readings can be large or run the other way.
Assay: qHTS of alpha-syn Inhibitors; note: % of control where 0% means no effect; nearly all actives have a fitted effect of over 65% in size
Conditions: Yeast expressing alpha-synuclein, BacTiter-Glo, 24 h; at 46.1 µM (top of the series)
Procedure, shortened: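 Galactose-induced alpha-syn yeast (OD600=0.02, raffinose-pregrown) + pinned cpd, 24 hr, 30 deg C; growth by BacTiter-Glo luminescence. Growth restoration scores as activation.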

Structure (SMILES)	growth rescue (activation)
c1cc(-c2nn[nH]n2)ccc1-c1nn[nH]n1	inactive: -0.809%
CC1CCN(C(=O)Oc2c(Cl)cc(Cl)c3cccnc23)CC1	inactive: 7.42%
O=P1(N(CCCl)CCCl)OCCCS1 (stereo unspecified)	inactive: 1.56%
O=C(Nc1cc([As](=O)(O)O)ccc1O)c1ccccc1	inactive: -9.54%
O=P(/N=c1/nc(-c2ccccc2)n(-c2ccccc2)s1)(Nc1ccccc1)Nc1ccccc1	inactive: 10.6%
CC(C)(C)C(=O)NC(Sc1ccncn1)C(Cl)(Cl)Cl (stereo unspecified)	inactive: -0.124%
O=[N+]([O-])c1ncn(CCn2ncnc2[N+](=O)[O-])n1	inactive: 3.32%
O=[N+]([O-])c1cccc(NC2=NCC(CBr)S2)c1 (stereo unspecified)	inactive: 1.44%
COC(=O)C1(C)COP(=O)(Nc2ccccc2)OC1 (stereo unspecified)	inactive: 1.45%
O=C(O)CNc1ccc([As](=O)(O)O)cc1	inactive: 1.34%
COc1ccc(N)c([N+](=O)[O-])c1[N+](=O)[O-]	inactive: 3.13%
CN(C)C1(CNC(=O)c2ccc(Cl)c(S(N)(=O)=O)c2)CCCCC1	inactive: 3.21%
O=P(Nc1ccccn1)(c1ccc(Br)cc1)c1ccc(Br)cc1	inactive: 7.16%
C[C@H]1OP(=O)(Oc2ccccc2)[C@H](O)[C@H](O)[C@H]1N=[N+]=[N-] (stereo partly specified)	inactive: -4.84%
O=P(Nc1nc2ccccc2s1)(c1ccccc1)c1ccccc1	inactive: 1.76%
O=[N+]([O-])c1ncn(CCn2cnc([N+](=O)[O-])n2)n1	inactive: -9.54%
CC(=O)NC(SC(=S)N(C)C)C(Cl)(Cl)Cl (stereo unspecified)	inactive: -7.17%
O=[N+]([O-])c1ccc(O)c(/C=N/Nc2ccc([N+](=O)[O-])cc2[N+](=O)[O-])c1	inactive: -16.4%
O=[As](O)(c1ccccc1)c1ccc(O)cc1	inactive: 0.769%
Nc1ccc([As](=O)(O)c2ccc([N+](=O)[O-])cc2)cc1	inactive: -3.45%
C(Cc1nn[nH]n1)Cc1nn[nH]n1	inactive: -6.62%
O=C(OC1CN2CCC1CC2)c1cccc(Cl)c1 (stereo unspecified)	inactive: 1.37%
O=P(Nc1nccs1)(c1ccccc1)c1ccccc1	inactive: 2.27%
CC(C)C(=O)NC(Sc1ccccc1)C(Cl)(Cl)Cl (stereo unspecified)	inactive: 5.37%
c1nnnn1CCn1cnnn1	inactive: 0.511%
CCOc1ccc(C2=NCC(CBr)S2)cc1 (stereo unspecified)	inactive: 5.09%

Structure (SMILES)	growth rescue (activation)
O=P1(Nc2nc3ccc(Cl)cc3s2)COc2ccccc2O1 (stereo unspecified)	inactive: -14.7%
CCc1cc(O)c([N+](=O)[O-])c(C)c1[N+](=O)[O-]	inactive: -72.9%
CC(C)(C)C(=O)NC(Sc1ccccc1)C(Cl)(Cl)Cl (stereo unspecified)	inactive: 4.38%
COC(=O)C1(C)COP(=O)(NCc2ccccc2)OC1 (stereo unspecified)	inactive: -2.5%
N#C/C(=C\c1ccc(N(CCBr)CCBr)cc1)C(N)=O	inactive: 7.5%
CC(=O)c1ccc(N2CC2c2ccncc2)cc1 (stereo unspecified)	inactive: -0.872%
C[C@@H]1C=CCP(=O)(Oc2ccccc2)O1 (stereo partly specified)	inactive: -0.29%
C[C@H]1OP(=O)(Oc2ccccc2)C[C@@H]2O[C@@H]21 (stereo partly specified)	inactive: 3.59%
Cc1ccccc1CN(C)C(=O)COC(=O)C(O)(c1ccccc1)c1ccccc1	inactive: 12.5%
CC(=O)Nc1ccc(Oc2c([N+](=O)[O-])cc([N+](=O)[O-])cc2[N+](=O)[O-])cc1	inactive: 5.68%
CC(=O)Nc1ccc([As](=O)(O)O)c(O)c1	inactive: -1.24%
O=C(NC1CCS(=O)(=O)C1)NP(=S)(Oc1ccccc1)Oc1ccccc1 (stereo unspecified)	inactive: -4.31%
CCNC(=S)/N=C(\N)N[N+](=O)[O-]	inactive: 0.663%
Cc1ccc(NP(=O)(Oc2cccc(C)c2)Oc2cccc(C)c2)nc1	inactive: -0.881%
c1ccc(-c2nn[nH]n2)c(-c2nn[nH]n2)c1	inactive: 1.61%
O=P1(N(CCCl)CCCl)OCCC2CCCCN21 (stereo unspecified)	inactive: -3.81%
CC(=O)NC(SC(=S)N(CC(C)C)CC(C)C)C(Cl)(Cl)Cl (stereo unspecified)	inactive: 4.89%
COC(=O)c1cc2c(s1)N=C(c1ccccc1)N(C)P2(=O)N1CCOCC1 (stereo unspecified)	inactive: -9.21%
CCC(=O)N1C2C3N(C(=O)CC)C1C1N(C(=O)CC)C(C(N1C(=O)CC)N3C(=O)CC)N2C(=O)CC	inactive: -6.2%
O=C(OC1CN2CCC1CC2)c1ccccc1 (stereo unspecified)	inactive: -2.18%
CN(C(=O)Cc1ccc(Cl)c(Cl)c1)[C@@H]1CCCC[C@@H]1N1CCCC1	inactive: 1.57%
CN(C)C(=O)Oc1noc2ccccc12	inactive: 5.63%
O=c1c2cc([N+](=O)[O-])ccc2[nH]c2c([N+](=O)[O-])cc([N+](=O)[O-])cc12	inactive: -69.1%
Cc1ccccc1OP(=O)(Nc1ccccn1)Oc1ccccc1C	inactive: 19.4%
CC(NC(=O)COC(=O)C(O)(c1ccccc1)c1ccccc1)c1ccccc1 (stereo unspecified)	inactive: 11.1%
